These are literature values, as cited in paper PMC5933782, “Molecular structures of cdc2-like kinases in complex with a new inhibitor chemotype” (PLoS ONE, 2018).

This data set has as its target DYRK1A. Set-up: method as in PMID 19837585. The conditions noted are these: kinase binding assay; cited from earlier work.

As for `CCN1/C(=C/C(C)=O)Sc2ccc(OC)cc21` [TG003], the Kd is 12 nM.

By Kd is commonly meant the equilibrium constant for the complex coming apart.
